Source: patent publication US20260384451A1, “6-ARYL IMIDAZO[2,1-B]THI/OpXAZOLE-2-CARBOXILIC ACID DERIVATIVE AND PHARMACEUTICAL COMPOSITION FOR TREATING ALZHEIMER'S DISEASE CONTAINING SAME AS ACTIVE INGREDIENT” (published 2026)

By UniProt entry, the sequences of proteins in these tests, tags left out.
UniProt P45983, whole entry: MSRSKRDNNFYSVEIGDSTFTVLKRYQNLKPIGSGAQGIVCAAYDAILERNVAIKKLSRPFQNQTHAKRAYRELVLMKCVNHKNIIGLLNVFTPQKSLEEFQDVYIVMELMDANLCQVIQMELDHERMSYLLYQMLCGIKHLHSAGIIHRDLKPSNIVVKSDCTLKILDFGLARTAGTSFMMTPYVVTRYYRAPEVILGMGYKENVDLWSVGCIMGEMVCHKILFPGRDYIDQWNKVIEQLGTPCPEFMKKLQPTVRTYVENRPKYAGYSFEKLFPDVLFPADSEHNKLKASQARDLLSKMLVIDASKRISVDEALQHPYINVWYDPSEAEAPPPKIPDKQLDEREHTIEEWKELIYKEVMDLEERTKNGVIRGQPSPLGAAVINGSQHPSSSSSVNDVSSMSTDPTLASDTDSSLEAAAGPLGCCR
UniProt P53779, whole entry: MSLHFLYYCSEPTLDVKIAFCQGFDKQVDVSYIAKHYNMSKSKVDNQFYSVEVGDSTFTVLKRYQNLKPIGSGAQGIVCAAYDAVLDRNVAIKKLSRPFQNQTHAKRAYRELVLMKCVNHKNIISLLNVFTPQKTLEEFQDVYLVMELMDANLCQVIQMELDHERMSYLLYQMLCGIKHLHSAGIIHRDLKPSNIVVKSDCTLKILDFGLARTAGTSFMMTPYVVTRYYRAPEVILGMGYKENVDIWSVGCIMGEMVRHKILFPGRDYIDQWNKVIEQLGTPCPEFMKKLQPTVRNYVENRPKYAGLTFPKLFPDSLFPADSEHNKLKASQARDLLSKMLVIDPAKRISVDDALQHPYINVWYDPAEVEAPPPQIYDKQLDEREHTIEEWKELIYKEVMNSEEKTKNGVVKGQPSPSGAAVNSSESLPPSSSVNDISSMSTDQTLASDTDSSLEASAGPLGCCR
UniProt P45984, whole entry: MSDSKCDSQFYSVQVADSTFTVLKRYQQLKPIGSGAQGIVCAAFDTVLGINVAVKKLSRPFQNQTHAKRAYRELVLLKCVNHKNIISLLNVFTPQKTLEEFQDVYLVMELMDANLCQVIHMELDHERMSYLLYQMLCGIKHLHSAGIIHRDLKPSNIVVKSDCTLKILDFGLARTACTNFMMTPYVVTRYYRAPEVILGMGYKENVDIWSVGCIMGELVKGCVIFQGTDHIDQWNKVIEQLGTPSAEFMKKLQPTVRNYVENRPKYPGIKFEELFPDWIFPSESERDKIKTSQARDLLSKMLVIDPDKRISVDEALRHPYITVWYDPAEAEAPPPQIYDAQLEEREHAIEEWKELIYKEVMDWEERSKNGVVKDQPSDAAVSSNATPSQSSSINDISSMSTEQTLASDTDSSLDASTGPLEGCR

biological target: JNK1 (Homo sapiens, UniProt P45983); test: Activity of major compounds against JNK1/2/p38α: JNK1 (selectivity versus JNK3); details: ratio of IC50 JNK1/JNK3

| Selectivity (IC50 fold) JNK1/JNK3 [fold] | SMILES |
| --- | --- |
| 10 | CN(C)C(=O)N1CCC[C@@H](Nc2nccc(-c3c(-c4ccc5ccccc5c4)nc4sc(C(N)=O)cn34)n2)C1 |
| 64 | CNC(=O)c1cn2c(-c3ccnc(N[C@@H]4CCCN(C(=O)C5CC5)C4)n3)c(-c3ccc4ccccc4c3)nc2s1 |
| 29 | CCOC(=O)c1cn2c(-c3ccnc(N[C@@H]4CCCN(C(=O)N(C)C)C4)n3)c(-c3ccc4ccccc4c3)nc2s1 |
| 100 | CCOC(=O)c1cn2c(-c3ccnc(N[C@@H]4CCCN(C(=O)C5CC5)C4)n3)c(-c3ccc4ccccc4c3)nc2s1 |

biological target: JNK3 (Homo sapiens, UniProt P53779); test: In vitro JNK3 inhibitory activity assay; details: read-out: JNK3; Table 8, class symbols

| IC50 [nM] | SMILES |
| --- | --- |
| 1 to 30 | CN(C)C(=O)N1CCC[C@@H](Nc2nccc(-c3c(-c4ccc5ccccc5c4)nc4sc(C(N)=O)cn34)n2)C1 |
| 1 to 30 | CNC(=O)c1cn2c(-c3ccnc(N[C@@H]4CCCN(C(=O)C5CC5)C4)n3)c(-c3ccc4ccccc4c3)nc2s1 |
| 1 to 30 | CCOC(=O)c1cn2c(-c3ccnc(N[C@@H]4CCCN(C(=O)N(C)C)C4)n3)c(-c3ccc4ccccc4c3)nc2s1 |
| 1 to 30 | CCOC(=O)c1cn2c(-c3ccnc(N[C@@H]4CCCN(C(=O)C5CC5)C4)n3)c(-c3ccc4ccccc4c3)nc2s1 |

same assay, conditions: read-out: JNK3 inhibitory activity (IC50); Table 1, imidazo[2,1-b]thiazole derivatives, class symbols

| SMILES | IC50 [nM] |
| --- | --- |
| CN(C)C(=O)N1CCC[C@@H](Nc2nccc(-c3c(-c4ccc5ccccc5c4)nc4sc(C(N)=O)cn34)n2)C1 | 1 to 30 |
| CCOC(=O)c1cn2c(-c3ccnc(N[C@@H]4CCCN(C(=O)C5CC5)C4)n3)c(-c3ccc4ccccc4c3)nc2s1 | 1 to 30 |
| CN(C)C(=O)N1CCC[C@@H](Nc2nccc(-c3c(-c4ccc5c(c4)OCCO5)nc4sc(C(N)=O)cn34)n2)C1 | < 1 |
| NC(=O)c1cn2c(-c3ccnc(N[C@H]4CCCN(C(=O)C5CC5)C4)n3)c(-c3ccc(Cl)c(Cl)c3)nc2s1 | 30 to 1000 |
| CNC(=O)c1cn2c(-c3ccnc(N[C@H]4CCCN(C(=O)C5CC5)C4)n3)c(-c3ccc4ccccc4c3)nc2s1 | 30 to 1000 |
| CNC(=O)c1cn2c(-c3ccnc(N[C@H]4CCCN(C(=O)N(C)C)C4)n3)c(-c3ccc(Cl)c(Cl)c3)nc2s1 | 30 to 1000 |
| CCOC(=O)c1cn2c(-c3ccnc(N[C@H]4CCCN(C(=O)C5CC5)C4)n3)c(-c3ccc4c(c3)OCCO4)nc2s1 | 30 to 1000 |
| CN(C)C(=O)N1CCC[C@H](Nc2nccc(-c3c(-c4ccc5ccccc5c4)nc4sc(C(N)=O)cn34)n2)C1 | 30 to 1000 |
| CNC(=O)c1cn2c(-c3ccnc(N[C@@H]4CCCN(C(=O)C5CC5)C4)n3)c(-c3ccc(Cl)c(Cl)c3)nc2s1 | 1 to 30 |

Results, then the compound that gave them:

| IC50 [nM] | SMILES |
| --- | --- |
| 1 to 30 | CCOC(=O)c1cn2c(-c3ccnc(N[C@@H]4CCCN(C(=O)N(C)C)C4)n3)c(-c3ccc4ccccc4c3)nc2s1 |
| 1 to 30 | NC(=O)c1cn2c(-c3ccnc(N[C@@H]4CCCN(C(=O)C5CC5)C4)n3)c(-c3ccc(Cl)c(Cl)c3)nc2s1 |
| 30 to 1000 | CNC(=O)c1cn2c(-c3ccnc(N[C@H]4CCCN(C(=O)N(C)C)C4)n3)c(-c3ccc(F)c(C(F)(F)F)c3)nc2s1 |
| 1 to 30 | CNC(=O)c1cn2c(-c3ccnc(N[C@@H]4CCCN(C(=O)C5CC5)C4)n3)c(-c3ccc4c(c3)OCCO4)nc2s1 |

same assay, conditions: read-out: JNK3 inhibitory activity (IC50); Table 2, imidazo[2,1-b]thiazole derivatives, class symbols

| SMILES | IC50 [nM] |
| --- | --- |
| NC(=O)c1cn2c(-c3ccnc(NC4CCOCC4)n3)c(-c3ccc4c(c3)OCCO4)nc2s1 | 30 to 1000 |
| CNC(=O)c1cn2c(-c3ccnc(NC4CCOCC4)n3)c(-c3ccc4c(c3)OCCO4)nc2s1 | 1 to 30 |
| CCOC(=O)c1cn2c(-c3ccnc(NC4CCOCC4)n3)c(-c3ccc4c(c3)OCCO4)nc2s1 | 1 to 30 |
| CNC(=O)c1cn2c(-c3ccnc(NC4CCOCC4)n3)c(-c3ccc4ccccc4c3)nc2s1 | 1 to 30 |
| CCOC(=O)c1cn2c(-c3ccnc(NC4CCCCC4)n3)c(-c3ccc4ccccc4c3)nc2s1 | 1 to 30 |

Second part, the compound after the results:

| IC50 [nM] | SMILES |
| --- | --- |
| 1 to 30 | CNC(=O)c1cn2c(-c3ccnc(NC4CCOCC4)n3)c(-c3ccc(F)c(Cl)c3)nc2s1 |
| 1 to 30 | CNC(=O)c1cn2c(-c3ccnc(NCCOC)n3)c(-c3ccc4ccccc4c3)nc2s1 |
| 1 to 30 | NC(=O)c1cn2c(-c3ccnc(NC4CCCCC4)n3)c(-c3ccc(Cl)c(Cl)c3)nc2s1 |
| < 1 | NC(=O)c1cn2c(-c3ccnc(NC4CCOCC4)n3)c(-c3ccc(F)c(Cl)c3)nc2s1 |
| 1 to 30 | CNC(=O)c1cn2c(-c3ccnc(NC4CCCCC4)n3)c(-c3ccc(Cl)c(Cl)c3)nc2s1 |

same assay, conditions: read-out: JNK3 inhibitory activity (IC50); Table 3, imidazo[2,1-b]oxazole derivatives, class symbols

| SMILES | IC50 [nM] |
| --- | --- |
| CCOC(=O)c1cn2c(-c3ccnc(N[C@H]4CCCN(C(=O)C5CC5)C4)n3)c(-c3ccc(F)c(Cl)c3)nc2o1 | < 1 |
| CNC(=O)c1cn2c(-c3ccnc(N[C@H]4CCCN(C(=O)N(C)C)C4)n3)c(-c3ccc(Cl)c(Cl)c3)nc2o1 | < 1 |
| CCOC(=O)c1cn2c(-c3ccnc(N[C@@H]4CCCN(C(=O)C5CC5)C4)n3)c(-c3ccc4c(c3)OCCO4)nc2o1 | 30 to 1000 |
| CNC(=O)c1cn2c(-c3ccnc(N[C@H]4CCCN(C(=O)C5CC5)C4)n3)c(-c3ccc(Cl)c(Cl)c3)nc2o1 | > 10000 |
| CCOC(=O)c1cn2c(-c3ccnc(N[C@@H]4CCCN(C(=O)N(C)C)C4)n3)c(-c3ccc4ccccc4c3)nc2o1 | < 1 |

Other lines, results leading:

| IC50 [nM] | SMILES |
| --- | --- |
| > 10000 | CCOC(=O)c1cn2c(-c3ccnc(N[C@H]4CCN(C(=O)C5CC5)C4)n3)c(-c3ccc4ccccc4c3)nc2o1 |
| 1000 to 10000 | CN(C)C(=O)N1CCC[C@@H](Nc2nccc(-c3c(-c4ccc(Cl)c(Cl)c4)nc4oc(C(N)=O)cn34)n2)C1 |
| < 1 | NC(=O)c1cn2c(-c3ccnc(N[C@H]4CCCN(C(=O)C5CC5)C4)n3)c(-c3ccc4ccccc4c3)nc2o1 |
| < 1 | NC(=O)c1cn2c(-c3ccnc(N[C@H]4CCCN(C(=O)C5CC5)C4)n3)c(-c3ccc(F)c(Cl)c3)nc2o1 |

same assay, conditions: read-out: JNK3 inhibitory activity (IC50); Table 4, imidazo[2,1-b]oxazole derivatives, class symbols

| IC50 [nM] | SMILES |
| --- | --- |
| 1 to 30 | CNC(=O)c1cn2c(-c3ccnc(NC4CCN(C(=O)C5CC5)CC4)n3)c(-c3ccc4ccccc4c3)nc2o1 |

same assay, conditions: read-out: JNK3 inhibitory activity (IC50); Table 5, imidazo[2,1-b]oxazole derivatives, class symbols

| IC50 [nM] | SMILES |
| --- | --- |
| 1 to 30 | CNC(=O)c1cn2c(-c3ccnc(NC4CCOCC4)n3)c(-c3ccc4ccccc4c3)nc2o1 |
| 30 to 1000 | NC(=O)c1cn2c(-c3ccnc(NC4CCCCC4)n3)c(-c3ccc4ccccc4c3)nc2o1 |
| < 1 | NC(=O)c1cn2c(-c3ccnc(NC4CCCCC4)n3)c(-c3ccc(Cl)c(Cl)c3)nc2o1 |
| 1 to 30 | CNC(=O)c1cn2c(-c3ccnc(NC4CCCCC4)n3)c(-c3ccc4c(c3)OCCO4)nc2o1 |
| < 1 | CCOC(=O)c1cn2c(-c3ccnc(NC4CCOCC4)n3)c(-c3ccc(Cl)c(Cl)c3)nc2o1 |
| < 1 | CNC(=O)c1cn2c(-c3ccnc(NC4CCCCC4)n3)c(-c3ccc(F)c(Cl)c3)nc2o1 |
| < 1 | CNC(=O)c1cn2c(-c3ccnc(NC4CCOCC4)n3)c(-c3ccc(F)c(Cl)c3)nc2o1 |
| 1 to 30 | NC(=O)c1cn2c(-c3ccnc(NC4CCOCC4)n3)c(-c3ccc(F)c(Cl)c3)nc2o1 |

same assay, conditions: read-out: JNK3 inhibitory activity (IC50); Table 6, imidazo[2,1-b]thiazole-based covalent inhibitors, class symbols

| SMILES | IC50 [nM] |
| --- | --- |
| C=CC(=O)Nc1cn2c(-c3ccnc(NC4CCCCC4)n3)c(-c3ccc(F)c(Cl)c3)nc2s1 | 1 to 30 |
| CN(C)/C=C/C(=O)c1cn2c(-c3ccnc(NC4CCOCC4)n3)c(-c3ccc(Cl)c(Cl)c3)nc2s1 | < 1 |
| C=CC(=O)c1cn2c(-c3ccnc(NC4CCCCC4)n3)c(-c3ccc4ccccc4c3)nc2s1 | 1 to 30 |

Other lines, results leading:

| IC50 [nM] | SMILES |
| --- | --- |
| 1 to 30 | C#CCNC(=O)c1cn2c(-c3ccnc(NC4CCOCC4)n3)c(-c3ccc(Cl)c(Cl)c3)nc2s1 |
| < 1 | C=CC(=O)Nc1cn2c(-c3ccnc(NC4CCOCC4)n3)c(-c3ccc(Cl)c(Cl)c3)nc2s1 |
| 1 to 30 | CN(C)/C=C/C(=O)c1cn2c(-c3ccnc(NC4CCOCC4)n3)c(-c3ccc4ccccc4c3)nc2s1 |
| < 1 | CN(C)/C=C/C(=O)c1cn2c(-c3ccnc(NC4CCOCC4)n3)c(-c3ccc(F)c(Cl)c3)nc2s1 |
| 1 to 30 | C#CCNC(=O)c1cn2c(-c3ccnc(NC4CCOCC4)n3)c(-c3ccc4ccccc4c3)nc2s1 |

same assay, conditions: read-out: JNK3 inhibitory activity (IC50); Table 7, imidazo[2,1-b]oxazole-based covalent inhibitors, class symbols

| IC50 [nM] | SMILES |
| --- | --- |
| 1 to 30 | CN(C)/C=C/C(=O)c1cn2c(-c3ccnc(NC4CCCCC4)n3)c(-c3ccc4ccccc4c3)nc2o1 |
| < 1 | C=CC(=O)Nc1cn2c(-c3ccnc(NC4CCCCC4)n3)c(-c3ccc4ccccc4c3)nc2o1 |
| 1 to 30 | CN(C)/C=C/C(=O)c1cn2c(-c3ccnc(NC4CCCCC4)n3)c(-c3ccc(F)c(Cl)c3)nc2o1 |
| 1 to 30 | C#CCNC(=O)c1cn2c(-c3ccnc(NC4CCOCC4)n3)c(-c3ccc4ccccc4c3)nc2o1 |
| 1 to 30 | C=CC(=O)c1cn2c(-c3ccnc(NC4CCCCC4)n3)c(-c3ccc4ccccc4c3)nc2o1 |

biological target: JNK2 (Homo sapiens, UniProt P45984); test: Activity of major compounds against JNK1/2/p38α: JNK2 (selectivity versus JNK3); details: ratio of IC50 JNK2/JNK3

| Selectivity (IC50 fold) JNK2/JNK3 [fold] | SMILES |
| --- | --- |
| 2 | CN(C)C(=O)N1CCC[C@@H](Nc2nccc(-c3c(-c4ccc5ccccc5c4)nc4sc(C(N)=O)cn34)n2)C1 |
| 7 | CNC(=O)c1cn2c(-c3ccnc(N[C@@H]4CCCN(C(=O)C5CC5)C4)n3)c(-c3ccc4ccccc4c3)nc2s1 |
| 2 | CCOC(=O)c1cn2c(-c3ccnc(N[C@@H]4CCCN(C(=O)N(C)C)C4)n3)c(-c3ccc4ccccc4c3)nc2s1 |
| 10 | CCOC(=O)c1cn2c(-c3ccnc(N[C@@H]4CCCN(C(=O)C5CC5)C4)n3)c(-c3ccc4ccccc4c3)nc2s1 |
